The text below walks through data of patent US5084454A, “2-(piperidinylmethyl)-4-phenyl-2,3-dihydro-4H-1,4-benzoxazines useful as antipsychotics” (Farmitalia Carlo Erba S.r.l., priority 1988, dated 1992).

One data set has as its target T1, D1 dopamine receptor (Rattus norvegicus, UniProt P18901).
T1 construct: from tissue
In words: D1 dopamine receptor binding affinity, [3H]cis-Flupenthixol. To be noted: read-out: IC50 D1 [3H]cisFlu.

The target of a further data set is T2, D2 dopamine receptor (Rattus norvegicus, UniProt P61169).
T2 construct: from tissue
Kind of data set: D2 dopamine receptor binding affinity, [3H]Spiperone.

A further data set concerns the target T3, 5HT2 serotonine receptor (Rattus norvegicus, UniProt P14842).
T3 construct: from tissue
Kind of data set: 5HT2 serotonine receptor binding affinity, [3H]Ketanserine. The conditions noted are these: read-out: IC50 5HT2 [3H]Ket. How it is done: The activity of the compounds of the present invention was evaluated for example in a series of receptorial binding affinity tests.
J. Pharmacol. 1977, 46, 377; Hyttel, J. Life Sci. 1981, 28, 563; Pedigo et al. Journal of Neurochemistry, 1981, 36, 220; Leysen et al. Molecular Pharmacology, 1981, 21, 301; Battaglia et al. Life Science, 1983, 33, 2011; Greengrass P., Brener R. Eur. J. Pharmacol., 1979, 55, 323; and Perry B. D., U'Prichard D. C. Eur. J. Pharmacol. 1981, 76, 461]
In the table cis-Flu. means cis-Flupenthixol; Spip. means Spiperone; Serot. means Serotonin; Ket. means Ketanserine; Praz. means Prazosin and Yohim. means Yohimbine, respectively. The above internal FCE codes refer to the following compounds

Data set [1] has as its system apomorphine-induced climbing behaviour in mice. Kind of data set: antagonism of apomorphine-induced climbing behaviour in mice. The format is in vivo, mouse. The conditions noted are these: for ED50: Mus musculus, po; for ED50 Climbing: oral. How it is done: The activity of the compounds of the present invention on the central nervous system was also evaluated by following for instance the technique of Protais P. et al. (Psychopharmacology, 50, 1 (1976).
The toxicity of the compounds of the invention is negligible, therefore they can be safely used in therapy. Nine hours food deprived mice were treated orally with single administration of increasing doses, then housed and normally fed. The orientative acute toxicity (LD50) was assessed on the seventh day after the treatment and resulted, in general, higher than 600 mg/kg. Following Table 2 summarizes the biological data obtained according to the above mentioned tests for some compounds of the present invention; Haloperidol has been evaluated in the same tests for comparative purposes.

Data set [2] relates to cataleptic activity in the mouse. The conditions noted are these: in vivo, po; for ED50 Catalepsy: 6 h.
Data set [3] is described as follows: in vivo. The conditions noted are these: mouse, po, ED50 Catalepsy.
A short description of data set [4]: in vivo. To be noted: mouse, po.
The next data set concerns mice. The conditions noted are these: datum given according to Il Farmaco Ed. Sc. 1976, 31, 442; 10080 min; cited from earlier work.

pIC50: −log10 of the molar value. Like-named read-outs stand apart in the source and are kept apart here. Some results are limits rather than exact numbers.

For `OC1(c2cccc(C(F)(F)F)c2)CCN(CC2CN(c3ccccc3)c3ccccc3O2)CC1` (centres unmarked) [FCE 25456, 2-[4-(3-trifluoromethyl-phenyl)-4-hydroxy-piperidin-1-yl]-methyl-4-phenyl-2,3-dihydro-4H-1,4-benzoxazine], the pIC50 at D1 dopamine receptor is less than 5.00; on D2 dopamine receptor (IC50 D2 [3H]Spip.), 9.00; on 5HT2 serotonine receptor, 7.00. For the same compound, the 50% effect level in data set [1] (ED50) was put at a dose of 2.5 mg/kg. For the same compound, in data set [2], the “(ED50 Catalepsy / ED50 Climbing)” value was 8. This compound also came in with an ED50 at 6 h in the data set “in vivo [3]” of 20 mg/kg. Further, in “in vivo [4]”, the LD50 at 168 h was more than 800 mg/kg.
In the case of `O=C1NCN(c2ccccc2)C12CCN(CC1CN(c3ccccc3)c3ccccc3O1)CC2` (centres unmarked) [FCE 24867, 2-(1-phenyl-1,3,8-triazaspiro[4,5]decan-4-one-8-yl)-methyl-4-phenyl-2,3-dihydro-4H-1,4-benzoxazine], the pIC50 on D1 dopamine receptor is 5.85; at D2 dopamine receptor (IC50 D2 [3H]Spip.), 8.10; on 5HT2 serotonine receptor, 7.40. The ED50 in data set [1] amounted to 4.5 mg/kg. The compound further came in with an ED50 at 6 h in “in vivo [3]” of 30.8 mg/kg.
In data set [1], `O=C(CCCN1CCC(O)(c2ccc(Cl)cc2)CC1)c1ccc(F)cc1` [Haloperidol, reference compound] came in with an ED50 of 0.5 mg/kg. Moreover, in the data set on mice, the LD50 was 71 mg/kg/os. In “in vivo [3]”, this compound showed an ED50 at 6 h of 2.2 mg/kg.
`O=C1NCN(c2ccccc2)C12CCN(CC1CN(c3ccccc3)c3ccccc3O1)CC2` (single isomer, unassigned; (+)) [FCE 25895, (+) 2-(1-phenyl-1,3,8-triazaspiro[4,5]decan-4-one-8-yl)-methyl-4-phenyl-2,3-dihydro-4H-1,4-benzoxazine]: the pIC50 on D1 dopamine receptor was 5.92; at D2 dopamine receptor (IC50 D2 [3H]Spip.) it was 8.30; on 5HT2 serotonine receptor it was 8.22. Further, in data set [1], the “ED50 Climbing” value was determined as 3.8 mg/kg/os. In addition, the ED50 Catalepsy in data set [2] was 61 mg/kg.
`O=C1NCN(c2ccccc2)C12CCN(CC1CN(c3ccccc3)c3ccccc3O1)CC2` (single isomer, unassigned; (-)) [FCE 25896, (-) 2-(1-phenyl-1,3,8-triazaspiro[4,5]decan-4-one-8-yl)-methyl-4-phenyl-2,3-dihydro-4H-1,4-benzoxazine]: the values for the pIC50 at D1 dopamine receptor, on D2 dopamine receptor (read-out: IC50 D2 [3H]Spip.) and at 5HT2 serotonine receptor were less than 5.00, 6.70 and 7.10, respectively. The “ED50 Climbing” value in data set [1] came to 1.8 mg/kg/os. For the same compound, the “(ED50 Catalepsy / ED50 Climbing)” value in data set [2] came to 12.6. For the same compound, the ED50 Catalepsy in data set [2] worked out at 22.7 mg/kg. Besides, in “in vivo [4]”, the LD50 at 168 h was more than 800 mg/kg.
Turning to `O=C1NCN(c2ccccc2)C12CCN(CC1CN(c3ccccc3)c3ccc(F)cc3O1)CC2` (centres unmarked) [FCE 25848, 2-(1-phenyl-1,3,8-triazaspiro[4,5]decan-4-one-8-yl)-methyl-4-phenyl-7-fluoro-2,3-dihydro-4H-1,4-benzoxazine], the pIC50 on D1 dopamine receptor was 5.62; at D2 dopamine receptor (IC50 D2 [3H]Spip.) it was 7.40; on 5HT2 serotonine receptor it was 7.52.
For `O=C1NCN(c2ccccc2)C12CCN(CC1CN(c3ccc(F)cc3)c3ccccc3O1)CC2` (centres unmarked) [FCE 25676, 2-(1-phenyl-1,3,8-triazaspiro[4,5]decan-4-one-8-yl)-methyl-4-(4-fluorophenyl)-2,3-dihydro-4H-1,4-benzoxazine], the pIC50 was 6.00 at D1 dopamine receptor, 8.70 on D2 dopamine receptor (IC50 D2 [3H]Spip.) and 7.70 at 5HT2 serotonine receptor. In data set [1], this compound had an ED50 of 4.9 mg/kg. The ED50 at 6 h in the data set “in vivo [3]” is 75 mg/kg.
Turning to `O=C1NCN(c2ccccc2)C12CCN(CC1CN(c3ccc(F)cc3)c3ccc(F)cc3O1)CC2` (centres unmarked) [FCE 25452, 2-(1-phenyl-1,3,8-triazaspiro[4,5]decan-4-one-8-yl)-methyl-4-(4-fluorophenyl)-7-fluoro-2,3-dihydro-4H-1,4-benzoxazine], the pIC50 at D1 dopamine receptor was 6.05; at D2 dopamine receptor (IC50 D2 [3H]Spip.), 8.05; on 5HT2 serotonine receptor, 7.70.
